Test system: blood-brain barrier
Test: Blood-to-brain transport, in vivo multiple time regression (MTR) analysis
Details: negative control, value used as V0 for spilanthol

Substance: bovine serum albumin [BSA, reference compound]
- vascular brain distribution volume (V0): 14.8 µL/g

Source: PMC4907212, “Mucosal and blood-brain barrier transport kinetics of the plant N-alkylamide spilanthol using in vitro and in vivo models” (BMC Complementary and Alternative Medicine, 2016)
